Experimental data from patent US9518130B2, “Use of ERBB3 inhibitors in the treatment of triple negative and basal-like breast cancers” (Merrimack Pharmaceuticals, Inc., priority 2010, dated 2016).

Test system: MDA-MB-231 triple negative breast cancer xenograft model
Assay: MM-121 combination with targeted and chemotherapies in vivo (Example 5)
Conditions: MM121 300 ug/mouse Q3D, erlotinib 50 mg/kg PO, cetuximab 2 mg/kg Q3D, paclitaxel 10 mg/kg

## cetuximab: anti-EGFR antibody, commercially available from ImClone Systems Incorporated
Day 28
  mean tumor volumes: 172.4 mm^3
Day 32
  mean tumor volumes: 210.6 mm^3
Day 36
  mean tumor volumes: 245.0 mm^3
Day 39
  mean tumor volumes: 269.2 mm^3
Day 43
  mean tumor volumes: 296.3 mm^3
Day 46
  mean tumor volumes: 279.7 mm^3
Day 49
  mean tumor volumes: 283.5 mm^3
Day 53
  mean tumor volumes: 358.1 mm^3
